{"sequences": {"note": "Amino acid sequences for entries named in this document (tags omitted).", "UniProt P0DMS8, whole entry": "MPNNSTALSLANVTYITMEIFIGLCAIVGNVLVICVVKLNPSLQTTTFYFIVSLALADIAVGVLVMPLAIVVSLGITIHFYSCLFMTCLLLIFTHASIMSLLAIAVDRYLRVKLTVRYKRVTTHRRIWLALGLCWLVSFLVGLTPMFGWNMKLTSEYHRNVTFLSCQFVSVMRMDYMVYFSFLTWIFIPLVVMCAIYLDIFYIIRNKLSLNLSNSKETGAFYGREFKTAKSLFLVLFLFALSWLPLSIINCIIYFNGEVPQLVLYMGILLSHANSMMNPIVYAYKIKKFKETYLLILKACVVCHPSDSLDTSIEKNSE"}, "source": "ChEMBL document CHEMBL1148506", "about": "“Structure-activity relationships of new 1H-imidazo[4,5-c]quinolin-4-amine derivatives as allosteric enhancers of the A3 adenosine receptor” (J Med Chem, 2006)", "molecular_target": "Adenosine receptor A3 (Homo sapiens) (UniProt P0DMS8)", "test": "Decrease in dissociation of [125I]I-AB-MECA from human adenosine A3 receptor in CHO membrane at 10 uM relative to control after 30 min", "type": "cell membranes", "design": "scale not given: the % may be the effect or the level left", "how_it_was_run": "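Membranes (20 μg) preloaded with 0.5 nM [125I]I-AB-MECA, 60 min at 25°C, in 50 mM Tris-HCl pH 8.0 with 10 mM MgCl2 and 1 mM EDTA. Dissociation started with 3 μM Cl-IB-MECA, with or without 10 μM modulator. Binding read by rapid filtration at 30 min; reported as % decrease in dissociation versus control (100%).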", "data": [{"smiles": "Clc1ccc(Nc2nc3ccccc3c3[nH]c(C4CCC4)nc23)cc1Cl", "values": [{"measurement": "Activity", "value": 116, "unit": "%"}]}]}
